Yeast UUG start-1 = yeast start codon fidelity modulation; activity score, % at 18.7 µM; actives 0.13% (n = 350,000); S. cerevisiae UUG-firefly luciferase reporter, luminescence/redox ratio; AID 602363;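 active means replicate mean at a twofold rise or more, about +100% in these data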;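 further: firefly luciferase made from a UUG start codon reports start codon fidelity; reporter light over untreated wells divided by growth signal over untreated wells; some hits fall short of that in this replicate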
Rce1 inh = blocks yeast Ras-converting enzyme | yeast membranes, quenched prenylated peptide cleavage fluorescence | hit rate 0.27% among 290,000 | Q03530 | calls only;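 active = fall in fluorescence gain of 50% or more versus controls, with final raw signal at or below 3038400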;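 note: plate controls were neutral control wells for no effect and wells lacking membranes for full effect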
DSG3 Ab inh = blocks pemphigus antibody binding to human desmoglein-3. P32926. DSG3-coupled beads, scFv-anti-DSG3-GFP binding, flow cytometry; active compounds read low. binding (percent of control), % at 10 µM. hit rate 0.48% among 310,000;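 active = binding more than 3 SD below its plate's average and above zero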;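 note: hits lower antibody fragment binding to DSG3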
Arrestin-AP2 inh = blocks beta-arrestin peptide binding to AP2 adaptin | FITC-arrestin peptide / GST-AP2 beads, flow cytometry; AP2 beta2 appendage carries R879A mutation | inhibition, % at 10 µM | hit rate 0.31% among 340,000;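 active = inhibition above a set limit, near 3 SD of compounds lacking own fluorescence, cut at about 54% in these data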;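 note: plate controls were DMSO wells for no effect and 5 µM unlabelled arrestin peptide for full effect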
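Material – AP2 appendage R879A on GSH beads · Buffer or medium – PBS with 0.05% Tween 20 and 0.1% BSA · Probe or stimulus – fluorescein-tagged arrestin peptide at 50 nM final · Incubation – compound with beads 12 min RT, then probe 1 h RT · Detection – high-throughput flow cytometry of beads, ex 488, em 535 nm · Evaluation – percent response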
TbMetRS inhib = Trypanosoma brucei MetRS inhibition; hit rate 0.4% among 360,000; inhibition, % at 11.9 µM; purified T. brucei MetRS, ATP depletion, Kinase-Glo luminescence;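 active = inhibition above a per-plate cutoff of the control wells' mean inhibition plus 3 SD, cut at about 5.5% in these data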;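 note: 0% = DMSO wells median and 100% = median of wells with control inhibitor compound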
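Material – parasite MetRS enzyme · Medium – HEPES-MgCl2-KCl buffer plus DTT, spermine, BSA, pyrophosphatase · Reagent – ATP, methionine and E. coli bulk tRNA substrates · Times – 15 min enzyme-compound preincubation, 2 h reaction, 10 min detection, 25 °C · Measured by – luminescence of leftover ATP · Evaluation – percent inhibition relative to median high and low control wells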
Yeast UUG start-2 = alters UUG start codon use in yeast | shares compounds with Yeast UUG start-1 | S. cerevisiae UUG-start firefly luciferase, luminescence, 4 h; 100% means double the DMSO signal | activation, % at 38 µM | 540 tested, under 10 active | AID 652061;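 active = signal increase whose fitted curve reaches an absolute level of 40 at a concentration under 10 µM; inactive = activity opposite to the expected increase, or the rest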
* = called active by the depositor. Hits are enriched below; roughly 1.2% of the tested compounds scored in any of these assays.

The first 3 compounds (preview)
What do the screens show for `CC(C)NC(=O)N(C)C[C@H]1OCCCC[C@@H](C)Oc2ccc(NC(=O)NC3CCCCC3)cc2C(=O)N([C@H](C)CO)C[C@@H]1C`?
Yeast UUG start-1: -11

How did COCC#Cc1ccc2c(c1)O[C@@H](CN(C)C(=O)NC(C)C)[C@H](C)CN([C@@H](C)CO)S2(=O)=O do in these assays?
Yeast UUG start-1: 3

How did C[C@@H]1CN([C@H](C)CO)S(=O)(=O)c2ccc(C#CC3CC3)cc2O[C@H]1CN(C)Cc1ccc(F)cc1 do in these assays?
Yeast UUG start-1: 7

The list itself, from the first entry:
What do the screens show for `CC(C)NC(=O)N(C)C[C@H]1OCCCC[C@@H](C)Oc2ccc(NC(=O)NC3CCCCC3)cc2C(=O)N([C@H](C)CO)C[C@@H]1C`?
Yeast UUG start-1: -11

How did COCC#Cc1ccc2c(c1)O[C@@H](CN(C)C(=O)NC(C)C)[C@H](C)CN([C@@H](C)CO)S2(=O)=O do in these assays?
Yeast UUG start-1: 3

How did C[C@@H]1CN([C@H](C)CO)S(=O)(=O)c2ccc(C#CC3CC3)cc2O[C@H]1CN(C)Cc1ccc(F)cc1 do in these assays?
Yeast UUG start-1: 7

How did CCCc1nc(-c2cc3ccccc3[nH]c2=O)no1 do in these assays?
Yeast UUG start-1: 227*; Rce1 inh: inactive; DSG3 Ab inh: 98; Arrestin-AP2 inh: -8; TbMetRS inhib: 0; Yeast UUG start-2: 13

Results for CCCc1nc(-c2ccc(-c3ccc(F)cc3)cc2)no1 ?
Yeast UUG start-1: -9; Rce1 inh: inactive; DSG3 Ab inh: 96; Arrestin-AP2 inh: 1; TbMetRS inhib: 1

What do the screens show for `Cc1ccc(S(=O)(=O)N[C@H]2CC[C@@H](CCNC(=O)c3ccc4c(c3)OCO4)O[C@@H]2CO)cc1`?
Yeast UUG start-1: 170*; Yeast UUG start-2: inactive

How did COc1cc(C)ccc1OCC(=O)OCC(=O)c1cc(C)n(CC2CCCO2)c1C (stereo not given) do in these assays?
Yeast UUG start-1: 6; Arrestin-AP2 inh: 32; TbMetRS inhib: 0

What do the screens show for `COc1cc(C(=O)OCC(=O)c2cc(C)n(CC3CCCO3)c2C)cc(OC)c1C` (stereo not given)?
Yeast UUG start-1: 107*; Arrestin-AP2 inh: 4; TbMetRS inhib: 0; Yeast UUG start-2: 6

What do the screens show for `CC(=O)Nc1ccc2c(c1)C(=O)N(C)[C@H]1CC[C@H](CC(=O)Nc3cccc(Cl)c3)O[C@@H]1CO2`?
Yeast UUG start-1: 6

Results for CCCNC(=O)C[C@@H]1CC[C@H]2[C@@H](COC[C@H](O)CN2Cc2cccc(F)c2)O1 ?
Yeast UUG start-1: 5

What do the screens show for `CCCNC(=O)C[C@@H]1CC[C@@H]2[C@H](COC[C@@H](O)CN2Cc2cccc(F)c2)O1`?
Yeast UUG start-1: 107*; Yeast UUG start-2: inactive

How did C[C@@H]1CN([C@@H](C)CO)C(=O)c2cc(-c3cccc(C#N)c3)cnc2O[C@@H]1CN(C)Cc1ccc(F)cc1 do in these assays?
Yeast UUG start-1: -1

How did CCn1c(O)c(N=NC(=O)CNC(=O)Cc2ccccc2)c2ccccc21 do in these assays?
Yeast UUG start-1: -3; Rce1 inh: inactive; Arrestin-AP2 inh: -7; TbMetRS inhib: -1

Results for O=C(CNC(=O)c1ccco1)N=Nc1c(O)n(CCc2ccccc2)c2ccccc12 ?
Yeast UUG start-1: 229*; Rce1 inh: inactive; DSG3 Ab inh: 103; Arrestin-AP2 inh: 28; TbMetRS inhib: 0; Yeast UUG start-2: 2

What do the screens show for `COC(=O)c1ccccc1NC(=O)CNC(=O)c1ccc(OC)cc1`?
Yeast UUG start-1: 264*; Rce1 inh: inactive; DSG3 Ab inh: 96; Arrestin-AP2 inh: -1; TbMetRS inhib: 1; Yeast UUG start-2: -11

What do the screens show for `COc1ccc(C(=O)Nc2ccccc2C(N)=O)cc1`?
Yeast UUG start-1: -17; DSG3 Ab inh: 105; Arrestin-AP2 inh: -6; TbMetRS inhib: 1

Results for C[C@H](CO)N1C[C@H](C)[C@H](CN(C)C(=O)c2cccnc2)Oc2ncc(-c3ccc(C#N)cc3)cc2C1=O ?
Yeast UUG start-1: 154*; Yeast UUG start-2: inactive

Results for C[C@H]1CN([C@@H](C)CO)C(=O)c2cc(-c3ccc(C#N)cc3)cnc2O[C@H]1CN(C)C(=O)c1cccnc1 ?
Yeast UUG start-1: -6

What do the screens show for `C[C@@H]1CN([C@@H](C)CO)C(=O)c2cc(-c3cccc(F)c3)cnc2O[C@@H]1CN(C)C(=O)c1cccc(F)c1`?
Yeast UUG start-1: active; Yeast UUG start-2: inactive

What do the screens show for `CCCCN(C(=O)NC(=O)Nc1ccccc1OCC)S(C)(=O)=O`?
Yeast UUG start-1: -11; Rce1 inh: inactive; DSG3 Ab inh: 94; Arrestin-AP2 inh: 39; TbMetRS inhib: 0

How did CCOc1ccccc1NC(=O)NC(=O)N(C)S(C)(=O)=O do in these assays?
Yeast UUG start-1: 436*; Rce1 inh: inactive; DSG3 Ab inh: 95; Arrestin-AP2 inh: 4; TbMetRS inhib: 0; Yeast UUG start-2: -6

Screening results as filed in PubChem.
